These are literature values, as cited in paper PMC5957473, “Small Molecule Neuropilin-1 Antagonists Combine Antiangiogenic and Antitumor Activity with Immune Modulation through Reduction of Transforming Growth Factor Beta (TGFβ) Production in Regulatory T-Cells” (Journal of Medicinal Chemistry, 2018).

On the set-up of the data set: method as in PMID 26755653. The conditions noted are these: historical compound; cited from earlier work.

Consider `N=C(N)NCCC[C@H](NC(=O)c1sccc1NS(=O)(=O)c1cccc2nsnc12)C(=O)O` [EG00229, (S)-2-(3-(benzo[c][1,2,5]thiadiazole-4-sulfonamido)thiophene-2-carboxamido)-5-((diaminomethylene)amino)pentanoic acid], for which the half-life is 30 min.
